Experimental data from article PMC3223389 (Frontiers in Pharmacology, 2011).

The chains behind the UniProt entries cited, without tags or fusion partners. Where a name states a change or a piece, a line headed by the entry shows the natural chain unless it says otherwise.
UniProt Q8NET8: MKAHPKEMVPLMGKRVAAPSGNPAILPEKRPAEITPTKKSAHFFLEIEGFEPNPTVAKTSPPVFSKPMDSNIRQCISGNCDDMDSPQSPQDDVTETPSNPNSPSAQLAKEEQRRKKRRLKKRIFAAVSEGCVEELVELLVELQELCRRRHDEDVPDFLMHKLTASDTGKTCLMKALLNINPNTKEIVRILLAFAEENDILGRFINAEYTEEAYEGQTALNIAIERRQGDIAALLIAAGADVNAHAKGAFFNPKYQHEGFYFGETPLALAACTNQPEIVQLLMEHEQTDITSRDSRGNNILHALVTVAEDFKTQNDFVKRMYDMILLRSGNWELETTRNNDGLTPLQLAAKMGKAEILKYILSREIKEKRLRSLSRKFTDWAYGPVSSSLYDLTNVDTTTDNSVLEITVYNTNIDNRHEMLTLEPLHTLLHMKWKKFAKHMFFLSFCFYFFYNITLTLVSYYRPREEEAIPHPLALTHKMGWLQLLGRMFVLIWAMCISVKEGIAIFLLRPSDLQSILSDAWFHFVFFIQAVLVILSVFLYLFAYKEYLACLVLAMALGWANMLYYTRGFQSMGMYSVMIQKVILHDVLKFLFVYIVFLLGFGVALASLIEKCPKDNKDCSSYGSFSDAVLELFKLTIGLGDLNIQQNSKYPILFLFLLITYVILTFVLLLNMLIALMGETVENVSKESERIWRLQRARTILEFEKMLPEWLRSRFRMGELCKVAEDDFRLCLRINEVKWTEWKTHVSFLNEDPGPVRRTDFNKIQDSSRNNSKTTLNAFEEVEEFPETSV

Biological target: hTRPV3 (Homo sapiens, UniProt Q8NET8)
Conditions: read-out: EC50 for activation of TRPV3

EC50: 61.1 ± 7.6 µM
Substance: 2-Aminoethoxydiphenyl borate [2-APB]
